These are literature values, as cited in EP3505218B1, “A GENTLE DETERGENT COMPOSITION FOR GREASY AND ACNEIC SKINS” (Unifarco S.p.A., priority 2017, dated 2019).

For the series the following is noted: raw material description; cited from earlier work.

Take PCA ethyl cocoyl arginate: the in vitro cytotoxicity result is “gentleness on the skin”.
